Test results from PubChem BioAssay AID1217 (Sanford-Burnham Center for Chemical Genomics, 2008).
Only a part is listed here, and it is no random draw. The source made the active and inactive calls.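 How the source made its calls: active means primary screen inhibition at 20 µM above a set limit (cut at about 50% in these data); inactive means the rest.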

test system: diaphorase (Clostridium kluyveri); experiment: diaphorase inhibitors and chemical oxidizers, primary screen, counter-screen for diaphorase-coupled primary assays, biochemical, uHTS, resorufin fluorescence (AID 1217);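 further: plate controls were DMSO with full reaction for no effect and wells lacking NADH for full effect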; conditions: diaphorase resazurin-to-resorufin fluorescence, NADH, 16 min; at 20 µM; active compounds read high; bacterial (C. kluyveri) enzyme, not human

Compound | inhibition
COc1ccc(OP(C)(=O)Nc2ccccn2)cc1 (stereo unspecified) | inactive: 11.7%
